What was measured:
B16F1 cells = test: Screening of tranexamic acid-peptides: intracellular melanin production in α-MSH-treated melanocytes; assay type: cell-based, mouse; details: α-MSH 20 μg/mL, 3 days; for inhibitory effect against α-MSH compared with Arbutin and AA2G: 1-250 μg/mL; for α-MSH Inhibitory Ability (%): intracellular melanin at 490 nm, Control (No Treatment) = 100, test concentration not stated (1-250 μg/mL tested)
Procedure: B16F1 cells, which are mouse melanocytes, were cultured in Dulbecco's modified Eagle's media (DMEM, Sigma), to which 10% fetal bovine serum (FBS, Sigma) was added, under 37° C. CO2 conditions. The cells were cultured in a 24-well plate at a concentration of 1×10^5 cells/well, and the attachment of cells was confirmed. Then, the control group was not treated with anything but only a solvent was added thereto, whereas a-MSH (20 μg/mL) was added to the positive control group. The remaining dishes were treated with α-MSH (20 μg/mL), 40 kinds of tranexamic acid-peptides, and the control group with Arbutin and AA2G, to a concentration of 1 μg/mL, 10 μg/mL, 100 μg/mL, and 250 μg/mL, respectively. Test materials were added to each dish and cultured for 3 days. After 3 days, the culture was removed by centrifugation, and the cells were lysed and intracellular melanin was collected, and observed at 490 nm to measure the amount of intracellular melanin production.
40 kinds of tranexamic acid-peptides were treated according to concentration, and their inhibitory effect against melanin production was measured.

[1] = test system: microphthalmia-associated transcription factor (MITF); test: MITF expression by RT-PCR in α-MSH-treated cells; assay type: cell-based, mouse; details: α-MSH-treated melanocytes (B16F10)
[2] = test system: skin pigmentation (melanin index); test: Clinical test of creams: skin pigmentation by Mexameter; assay type: in vivo, human; details: 2 times a day
From the text: In particular, a cream containing tranexamic acid was used as the positive control group and the standard base cream was used as the negative control group.
The face of each subject was divided into two parts vertically and the two kinds of creams prepared above were applied to each face. The subjects were required to continuously use the creams in the morning and evening, 2 times a day for 8 weeks after washing the face.
For the objective evaluation of changes in skin pigmentation before and after the use of the creams, the changes in pigmentation were measured using the Mexameter (CK, Germany) before the use of the creams, 2 weeks, 4 weeks, 6 weeks, and 8 weeks after the use of the creams.
As a result of the above experiment, the tranexamic acid-dipeptide with a greater effect between the two kinds of tranexamic acid-dipeptides, was selected and, as an attempt to reduce the content in the cream, a cream containing 0.5% tranexamic acid-dipeptide was prepared. Ten women subjects were collected and the 8-week clinical experiment was performed in the same manner as described above.

mouse melanocytes = test: Whitening effect: melanin production in α-MSH-treated melanocytes by visual inspection; assay type: cell-based; details: α-MSH 20 μg/mL, 1-250 μg/mL, 3 days
Procedure: According to a preferred embodiment of the present invention, the peptides of the present invention […] the melanin production in a concentration-dependent manner. […] Additionally, when cells were treated with 4 kinds of the tranexamic acid-peptides; the peptides, to which tranexamic acid was not bound; Arbutin; and AA2G at various concentrations (1μ, 10μ, 100μ, and 250μ), cultured for 3 days, and the absorbance of the cultures were measured at 490 nm and analyzed.
Tranexamic acid-peptides were treated according to concentration and their inhibitory effect against melanin production was measured. The mouse melanocytes were cultured in Dulbecco's modified Eagle's media (DMEM, Sigma) containing 10% fetal bovine serum ([…], Sigma) under 37° C. CO2 conditions.
The cells were cultured in a 24-well plate at a concentration of 1×10^5 cells/well, and the attachment of cells was confirmed. Then, the control group was not treated with anything but only a solvent was added thereto, whereas a-MSH ([…]) was added to the positive control group. The remaining dishes were treated with α-MSH (20 μg/mL), 4 kinds of tranexamic acid-peptides, and the control group with Arbutin and AA2G, to a concentration of 1 μg/mL, 10 μg/mL, 100 μg/mL, and 250μ), respectively. Test materials were added to each dish and cultured for 3 days. […]

[3] = 54 women, creams with 1% tranexamic acid-dipeptide or tranexamic acid

Substance	inhibitory effect against α-MSH compared with Arbutin and AA2G (B16F1 cells)	α-MSH Inhibitory Ability (%) (B16F1 cells)	expression of MITF (mRNA) [1]	decrease of the melanin index after 8 weeks [2, 3]	decrease of the melanin index after 8 weeks ([2]; ten women, cream with 0.5% tranexamic acid-dipeptide or tranexamic acid)	amount of melanin production by visual inspection (mouse melanocytes)
Tranexamil-AP [Dipeptide-3 AP]	superior to Arbutin and AA2G	41%	inhibited the expression of the gene (MITF)			
Tranexamil-VS [Dipeptide-23 VS]	superior to Arbutin and AA2G	24%	inhibited the expression of the gene (MITF)	22.9%	23.9%	
Tranexamil-PS [Dipeptide-27 PS]	superior to Arbutin and AA2G	28%	inhibited the expression of the gene (MITF)	183.2%		decreased in a concentration-dependent manner
